Assay results taken from article PMC7415805 (Theranostics, 2020).

The chains behind the UniProt entries cited, without tags or fusion partners.
UniProt P30536, whole entry, stated change not applied: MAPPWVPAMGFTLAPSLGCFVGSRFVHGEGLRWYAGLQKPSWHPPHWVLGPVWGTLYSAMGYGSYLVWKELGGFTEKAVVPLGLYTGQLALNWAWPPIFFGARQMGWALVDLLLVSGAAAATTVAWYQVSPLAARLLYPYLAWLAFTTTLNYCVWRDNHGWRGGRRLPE
UniProt P30536, whole entry T147A: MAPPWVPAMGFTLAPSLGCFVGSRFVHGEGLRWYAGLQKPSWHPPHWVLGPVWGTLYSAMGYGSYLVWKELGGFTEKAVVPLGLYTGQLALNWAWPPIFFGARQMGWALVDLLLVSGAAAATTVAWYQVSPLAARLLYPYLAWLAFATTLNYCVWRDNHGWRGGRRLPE

Key:
TSPO A147T mutant (LAB) = TSPO A147T mutant (LAB) (Homo sapiens, UniProt P30536); experiment: biochemical
TSPO WT (HAB) = molecular target: T1, TSPO WT (HAB) (Homo sapiens, UniProt P30536, T147A); experiment: Competitive inhibition assay with [3H]PK11195 on membrane proteins, HAB; format: binding
T1 construct: unnamed tag of the 'tagged ORF clone' (own knowledge: OriGene RG clones carry a C-terminal TurboGFP); host or cells: 293FT

CCC(C)N(C)C(=O)c1cc2ccccc2c(-c2ccccc2Cl)n1 (centres unmarked) [PK11195]
IC50 (TSPO A147T mutant (LAB)): 5.01 µM
IC50 (TSPO WT (HAB)): 6.05 µM
